Source: PubChem
The list is not random: actives were taken first. Their share in the collection is about 2.5%.
Apoferritin bind – candidate novel general anesthetic via apoferritin binding | 350,000 compounds, 0.074% hits | apoferritin/1-aminoanthracene competitive binding, fluorescence | P02791 | Potency, µM (series often up to 77.5 µM), without a hit: top-dose activity change, negative = displacement, actives largely listed as inhibitors; note: potency is the fitted concentration of half-maximal effect; % is set by controls: 0 for no effect and ±100 for the full control effect; nearly all actives have a fitted effect of over 20% in size
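Apoferritin-based anesthetic binding model; compound displacement of fluorescent 1-AMA measured as endpoint fluorescence after 10 minutes at room temperature, scaled to free-ligand and complex controls.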
miR-21 reporter – miR-21 reporter, rising signal; Potency, µM (titrated, usually from 38.3 µM), without a hit: at the highest dose reporter change, positive = more light; AID 2288; 340,000 tested, under 10 active; HeLa miR-21 FLuc reporter, luciferase, 48 h; active = well fitted rising curve with a large enough effect; inconclusive = small, poorly fitted or top-dose-only effect; inactive = no such curve, though single readings can be large or run the other way;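 note: % of control where 0% means no effect; miR-21 action dims this reporter so a rising signal means less miR-21 action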
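HeLa miR-21-FLuc reporter line, endogenous miR-21; 2000 cells/well in DMEM/10% FBS; compound titration up to ~40uM final, 48 h, 37 degree Celsius; luciferase detection reagent, 15 min lysis, CCD luminescence.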
TrxR1 substrate – substrates of rat thioredoxin reductase 1. purified TrxR1 substrate turnover, NADPH consumption readout. Potency, µM (series often up to 114 µM), for the others: top-dose activity change, negative = substrate turnover. 390,000 compounds, 0.01% hits. AID 588456; note: potency is the fitted concentration of half-maximal effect; % is set by controls: 0 for no effect and ±100 for the full control effect; nearly all actives have a fitted effect of over 50% in size
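Rat TrxR1, dispensed at 90 nM, was prereduced with 400 uM NADPH (final) for 5 min at ~22 deg C, then incubated with compound 15 min before 400 uM selenite. A first-read NADPH fluorescence drop versus no-compound background flagged substrates.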
ClpP mod – qHTS Assay for Activators of ClpP; ATP-dependent Clp protease proteolytic subunit (Bacillus subtilis (strain 168)), P80244; purified B. subtilis ClpP, FRET peptide cleavage, 20 min; Potency, µM (titrated, usually from 57.5 µM), inactives show at the top dose activity change, negative = active; 340,000 compounds, 1.9% hits; active = well fitted falling curve with a large enough effect; inconclusive = small, poorly fitted or top-dose-only effect; inactive = no such curve, though single readings can be large or run the other way; note: potency is the fitted concentration of half-maximal effect; the source files actives as falling curves though it sought activators and does not explain the sign; nearly all actives have a fitted effect of over 65% in size
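FRET quenching reversal measured ClpP activation: 10 microg/mL B. subtilis ClpP at pH 8 with the FRET-FV decapeptide, read at 430 nm after 320 nm excitation. The 20-min minus 0-min signal was scaled between DMSO/no-enzyme wells and ADEP (5.8 microM final).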
rTrxR1 inhibitor – rat TrxR1 inhibition; O89049; recombinant rTrxR1, NADPH fluorescence consumption, selenite substrate; Potency, µM (series often up to 114 µM), inactives show at the highest dose activity change, negative = inhibition, hits mostly inhibitors; 390,000 compounds, 1% hits; AID 588453; note: potency is the fitted concentration of half-maximal effect; % is set by controls: 0 for no effect and ±100 for the full control effect; nearly all actives have a fitted effect of over 65% in size
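Rat TrxR1 (90 nM in the dispensed reagent) was pre-reduced with 400 uM NADPH for 5 min at room temperature, then incubated with compound for 15 min. After 400 uM selenite was added, NADPH fluorescence (Ex 340/Em 450 nm) was followed for 8 min.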
Active calls of the source: *; ? = inconclusive; nt = no result; [ ] = dose if it differs, or a comment. Unless noted, calls come from the whole dose curve; as a rule, active = well fitted curve in the direction sought with a large enough effect; inconclusive = small, poorly fitted or top-dose-only effect, or another doubt; inactive = no such curve, though single readings can be large; an effect the other way counts as inactive or inconclusive.

By UniProt entry, the sequences of proteins in these tests, tags left out.
ATP-dependent Clp protease proteolytic subunit (Bacillus subtilis (strain 168)), P80244, UniProt P80244, whole entry, looked up: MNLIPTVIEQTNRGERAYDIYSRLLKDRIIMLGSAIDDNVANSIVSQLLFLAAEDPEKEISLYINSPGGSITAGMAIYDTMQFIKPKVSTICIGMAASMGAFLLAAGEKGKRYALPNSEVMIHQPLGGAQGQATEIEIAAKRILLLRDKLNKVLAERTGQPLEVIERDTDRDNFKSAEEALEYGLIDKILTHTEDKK

Letter code – A = Apoferritin bind; B = miR-21 reporter; C = TrxR1 substrate; D = ClpP mod; E = rTrxR1 inhibitor
(1) O=C(NCc1ccccc1)C12CC3CC(CC(Cl)(C3)C1)C2
  A: -15.5%; B: 0.3%; C: 6.1%[57.1 µM]; D: 31.6µM*; E: 4.2%[57.1 µM]
(2) CSc1ccccc1OCc1cc(C(=O)NC(C)CCn2cccn2)no1 (configuration not stated)
  A: -20.4%; B: -4.9%; C: -3.7%; D: -3.8%; E: -1.7%
(3) CSc1ccccc1OCc1cc(C(=O)NC(C)c2cnn(C)c2)no1 (configuration not stated)
  A: -9.5%; B: -13.4%; C: -2.2%; D: 28.2µM*; E: 4.5%
(4) CCOc1ccccc1NC(=O)CSc1nnc(CC)c(CC)n1
  A: -16.9%; B: -7.8%; C: -1.5%[57.1 µM]; D: 0.9%; E: 9.3%[57.1 µM]
(5) CCC(=O)Oc1ccc(C/C(=N\O)c2ccc(O)cc2O)o1
  A: 5.4%; B: 18.8%; C: 9.6%; D: -0.1%; E: 10µM*
(6) CCOc1cc(/C=N/Nc2cccc(C(=O)O)c2)ccc1OC(=O)c1ccccc1
  A: -15.7%; B: -50.0%; C: -4.4%[57.1 µM]; D: nt; E: -4.2%[57.1 µM]
(7) CCOc1cc(/C=N/NC(=O)CNc2cccc(C)c2)ccc1OC(=O)c1ccccc1
  A: ?; B: 0.1%; C: -9.7%; D: 10µM*; E: 0.7%
(8) CCc1ccc(NC(=O)CSc2nc3cc(C(=O)OC)ccc3c(=O)n2Cc2ccco2)cc1
  A: -12.5%; B: -1.8%; C: -7.9%; D: -3.5%; E: -7.2%
(9) CCN(C(=O)CSc1nc2cc(C(=O)OC)ccc2c(=O)n1Cc1ccco1)c1cccc(C)c1
  A: -8.7%; B: 2.3%; C: 4.3%; D: 31.6µM*; E: 8.8%
(10) O=C1C=CC(=Nc2ccc(F)cc2)O1
  A: nt; B: nt; C: 0.5%; D: nt; E: 7.08µM*
(11) COc1cccc(C(=O)N2c3nc(-c4ccco4)nn3C3(CCCCC3)[C@@H]3CCCC[C@@H]32)c1
  A: ?; B: ?; C: 6.1%; D: 0.0%; E: 8.91µM*
(12) O=C(c1cccc(Cl)c1)N1c2nc(-c3ccco3)nn2C2(CCCCC2)[C@@H]2CCCC[C@@H]21
  A: -12.7%; B: -7.3%; C: 6.6%; D: -2.1%; E: -0.8%
(13) COc1ccc(Cn2c(SCc3ccc(C(=O)NC(C)C)cc3)nc3cccnc32)cc1
  A: 5.9%; B: -1.6%; C: 4.9%; D: 4.2%; E: 23.4%
(14) Cc1ccc(C)c(C(=O)CSc2nc3cc(C(=O)NC4CCCC4)ccc3c(=O)n2CC2CCCO2)c1 (configuration not stated)
  A: -10.4%; B: 3.9%; C: -4.8%[57.1 µM]; D: -0.3%; E: -0.2%[57.1 µM]
(15) CCC(C)c1ccccc1NC(=O)COC(=O)c1ccc2c(c1)S(=O)(=O)c1ccccc1C2=O (configuration not stated)
  A: -16.5%; B: -0.3%; C: 3.6%[57.1 µM]; D: 22.4µM*; E: 0.6%[57.1 µM]
(16) COc1ccc(/C=C/c2nc(C#N)c(N3CCC(C(N)=O)CC3)o2)cc1OC
  A: -6.9%; B: -1.5%; C: 108.6%; D: 4.7%; E: -0.4%
(17) Cc1ccc(S(=O)(=O)N(C)C)cc1NC(=O)COC(=O)c1sc2cc(Cl)ccc2c1Cl
  A: -12.2%; B: -0.8%; C: 0.2%; D: -11.5%; E: 35.5µM*
(18) Cc1ccc(S(=O)(=O)NCC23C=CC(O2)C2C(=O)N(c4ccccc4)C(=O)C23)cc1 (configuration not stated)
  A: -23.0%; B: 14.0%; C: -0.5%; D: -17.4%; E: 2.82µM*
(19) CC(C)(C)OC(=O)NCC12C=CC(O1)C1C(=O)N(Cc3ccccc3)C(=O)C12 (configuration not stated)
  A: 2.5%; B: 10.7%; C: 10.4%; D: -6.5%; E: ?
(20) Cc1ccc(N2C(=O)C3C4C=CC(CNC(=S)N5CCN(c6ccccc6)CC5)(O4)C3C2=O)cc1 (configuration not stated)
  A: -5.8%; B: 2.2%; C: 0.2%; D: 1.0%; E: 20µM*
(21) Cc1cccc(NC(=S)NCC23C=CC(O2)C2C(=O)N(c4ccc(Cl)cc4)C(=O)C23)c1 (configuration not stated)
  A: 0.4%; B: -2.5%; C: -1.4%; D: -3.7%; E: 7.94µM*
(22) Cc1ccc(NC(=S)NCC23C=CC(O2)C2C(=O)N(c4ccc(C)cc4)C(=O)C23)cc1 (configuration not stated)
  A: -8.7%; B: -6.4%; C: 0.9%; D: 1.5%; E: 10µM*
(23) S=C(NCC1CCCO1)N1CCN(c2ccccc2)CC1 (configuration not stated)
  A: -5.0%; B: 0.7%; C: 9.3%; D: nt; E: 25.0%[57.1 µM]
(24) CC(C)Oc1ccc(CNC(=O)CN2C(=O)c3cccnc3Oc3ccc(Cl)cc32)cc1
  A: ?; B: 23.2%; C: -15.1%; D: -2.8%; E: -4.3%
(25) Cc1cc([N+](C)(C)C)cc(C)c1/C=C/c1ccnc2ccccc12
  A: nt; B: nt; C: -2.8%; D: -0.8%; E: -21.2%
(26) CCN(CC)c1cc(C)c2cc(NC(=O)/C=C/c3ccc(C)cc3)ccc2n1
  A: 18.4%; B: 15.6%; C: -3.5%; D: -3.2%; E: 11.5%
(27) CCN(CC)c1cc(C)c2cc(NC(=O)CNC(C)=O)ccc2n1
  A: 3.4%; B: -10.6%; C: 79.0%; D: 15.8µM*; E: 12.1%
(28) Cc1cccc(NC(=O)CSc2nc3n[nH]c(C)c3c(=N)n2-c2cccc(Cl)c2)c1
  A: -16.4%; B: 14.3%; C: -0.2%[57.1 µM]; D: ?; E: 19.3%[57.1 µM]
(29) CCCCN(C)CCCNC(=O)Cn1ncc2c3ccccc3n(Cc3ccccc3F)c2c1=O
  A: 6.0%; B: 3.5%; C: 6.1%; D: ?; E: 1.7%
(30) CC(NC(=O)Cn1ccsc1=N)C12CC3CC(CC(C3)C1)C2 (configuration not stated)
  A: -21.7%; B: 3.7%; C: -12.5%; D: 4.1%; E: 15.6%[57.1 µM]
(31) CC(NC(=O)Cn1c(=O)[nH]c2ccsc2c1=O)C12CC3CC(CC(C3)C1)C2 (configuration not stated)
  A: 14.1µM*; B: -4.4%; C: 9.3%; D: 2.8%; E: 11.7%
(32) COc1cc2c(C(=O)N3CCN(c4ccc(F)cc4)CC3)cn(CC(C)C)c(=O)c2cc1OC
  A: -3.0%; B: -5.6%; C: 6.8%; D: -5.9%; E: 23.1%
(33) CCOc1ccc(C(=O)c2oc3ccccc3c2NC(=O)Cc2coc3ccc(CC)cc23)cc1
  A: -2.2%; B: -6.9%; C: 8.1%; D: -2.6%; E: 11.2%
(34) N#Cc1cnn2cc(-c3ncc(C(F)(F)F)cc3Cl)cnc12
  A: -2.3%; B: -13.0%; C: 16.5%; D: 28.2µM*; E: 17.8%
(35) FC(F)(F)c1cnc(-c2cnc3c(-c4ccc(Cl)cc4)cnn3c2)c(Cl)c1
  A: 30.4%; B: -3.2%; C: -7.3%; D: -1.6%; E: -4.1%
(36) CC1(C)Cc2c(C#N)c(N3CCN(C(=O)c4ccco4)CC3)nc(-c3ccco3)c2CS1
  A: -21.0%; B: -6.0%; C: 26.7%; D: ?; E: 7.08µM*
(37) CC1(C)Cc2c(C#N)c(N3CCN(C(=O)c4ccccc4Cl)CC3)nc(-c3ccco3)c2CS1
  A: ?; B: -11.5%; C: 24.4%[57.1 µM]; D: 28.2µM*; E: 12.6µM*
(38) CC1(C)Cc2c(C#N)c(N3CCN(C(=O)c4ccco4)CC3)nc(Cc3ccccc3)c2CO1
  A: -8.8%; B: -8.2%; C: 45.6%; D: 28.2µM*; E: -27.0%
(39) CC(=O)N1CCN(c2nc(-c3ccco3)c3c(c2C#N)CC(C)(C)SC3)CC1
  A: -4.1%; B: 1.6%; C: 13.0%[57.1 µM]; D: ?; E: ?
(40) CCc1nc(N2CCN(C(=O)c3ccco3)CC2)c(C#N)c2c1COC(C)(C)C2
  A: -8.7%; B: -1.0%; C: 57.1%; D: 3.4%; E: -20.1%
(41) CC1(C)Cc2c(C#N)c(SCC(=O)c3ccccc3)nc(N3CCOCC3)c2CS1
  A: -2.2%; B: 0.2%; C: 8.6%[57.1 µM]; D: -3.6%; E: -14.6%

Reprinted at random: four compounds from above
Letter code – A = Apoferritin bind; B = miR-21 reporter; C = TrxR1 substrate; D = ClpP mod; E = rTrxR1 inhibitor
(32) COc1cc2c(C(=O)N3CCN(c4ccc(F)cc4)CC3)cn(CC(C)C)c(=O)c2cc1OC
  A: -3.0%; B: -5.6%; C: 6.8%; D: -5.9%; E: 23.1%
(28) Cc1cccc(NC(=O)CSc2nc3n[nH]c(C)c3c(=N)n2-c2cccc(Cl)c2)c1
  A: -16.4%; B: 14.3%; C: -0.2%[57.1 µM]; D: ?; E: 19.3%[57.1 µM]
(35) FC(F)(F)c1cnc(-c2cnc3c(-c4ccc(Cl)cc4)cnn3c2)c(Cl)c1
  A: 30.4%; B: -3.2%; C: -7.3%; D: -1.6%; E: -4.1%
(27) CCN(CC)c1cc(C)c2cc(NC(=O)CNC(C)=O)ccc2n1
  A: 3.4%; B: -10.6%; C: 79.0%; D: 15.8µM*; E: 12.1%
